Values of other authors in patent US11568956B2, “Methods for identifying inhibitors of amyloid protein aggregation” (Treventis Corporation, priority 2008, dated 2023).

Protein sequences, listed by entry. Tags and fused reporters are not part of them. Lines headed by an entry give the natural chain unless they say otherwise; changes in a name come on top.
UniProt P05067: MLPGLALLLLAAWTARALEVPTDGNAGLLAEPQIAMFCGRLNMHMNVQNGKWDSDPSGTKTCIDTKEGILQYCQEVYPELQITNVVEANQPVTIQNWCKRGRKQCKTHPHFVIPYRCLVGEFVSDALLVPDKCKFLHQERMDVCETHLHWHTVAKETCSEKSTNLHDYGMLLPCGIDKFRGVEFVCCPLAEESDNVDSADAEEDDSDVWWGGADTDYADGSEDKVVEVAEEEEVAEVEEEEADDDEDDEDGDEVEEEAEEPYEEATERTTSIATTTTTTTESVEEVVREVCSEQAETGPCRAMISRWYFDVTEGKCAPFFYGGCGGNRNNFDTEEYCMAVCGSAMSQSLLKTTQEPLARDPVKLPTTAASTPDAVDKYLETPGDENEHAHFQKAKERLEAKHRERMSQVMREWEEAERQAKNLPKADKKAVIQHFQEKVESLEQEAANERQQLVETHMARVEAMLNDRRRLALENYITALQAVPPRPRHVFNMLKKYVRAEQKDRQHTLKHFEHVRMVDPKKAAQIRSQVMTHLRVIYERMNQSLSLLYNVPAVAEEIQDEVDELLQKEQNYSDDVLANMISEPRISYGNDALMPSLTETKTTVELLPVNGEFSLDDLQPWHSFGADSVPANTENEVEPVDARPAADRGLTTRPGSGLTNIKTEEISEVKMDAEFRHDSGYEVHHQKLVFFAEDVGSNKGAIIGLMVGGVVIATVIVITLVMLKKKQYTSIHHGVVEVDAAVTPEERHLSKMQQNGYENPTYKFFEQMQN

Target: Aβ (Homo sapiens, UniProt P05067)
Conditions: read-out: Expt (IC50); unit not in the table, μM; Masuda test set; cited from earlier work

Which IC50 does the source give for quinacrine mustard here?
The IC50 was 1.2 µM.
